Data from ChEMBL document CHEMBL6096671, “Discovery of VU6024578/BI02982816: An mGlu1 Positive Allosteric Modulator with Efficacy in Preclinical Antipsychotic and Cognition Models” (J Med Chem, 2024).

Protein sequences, listed by entry. Tags and fused reporters are not part of them. Lines headed by an entry give the natural chain unless they say otherwise; changes in a name come on top.
UniProt Q13255: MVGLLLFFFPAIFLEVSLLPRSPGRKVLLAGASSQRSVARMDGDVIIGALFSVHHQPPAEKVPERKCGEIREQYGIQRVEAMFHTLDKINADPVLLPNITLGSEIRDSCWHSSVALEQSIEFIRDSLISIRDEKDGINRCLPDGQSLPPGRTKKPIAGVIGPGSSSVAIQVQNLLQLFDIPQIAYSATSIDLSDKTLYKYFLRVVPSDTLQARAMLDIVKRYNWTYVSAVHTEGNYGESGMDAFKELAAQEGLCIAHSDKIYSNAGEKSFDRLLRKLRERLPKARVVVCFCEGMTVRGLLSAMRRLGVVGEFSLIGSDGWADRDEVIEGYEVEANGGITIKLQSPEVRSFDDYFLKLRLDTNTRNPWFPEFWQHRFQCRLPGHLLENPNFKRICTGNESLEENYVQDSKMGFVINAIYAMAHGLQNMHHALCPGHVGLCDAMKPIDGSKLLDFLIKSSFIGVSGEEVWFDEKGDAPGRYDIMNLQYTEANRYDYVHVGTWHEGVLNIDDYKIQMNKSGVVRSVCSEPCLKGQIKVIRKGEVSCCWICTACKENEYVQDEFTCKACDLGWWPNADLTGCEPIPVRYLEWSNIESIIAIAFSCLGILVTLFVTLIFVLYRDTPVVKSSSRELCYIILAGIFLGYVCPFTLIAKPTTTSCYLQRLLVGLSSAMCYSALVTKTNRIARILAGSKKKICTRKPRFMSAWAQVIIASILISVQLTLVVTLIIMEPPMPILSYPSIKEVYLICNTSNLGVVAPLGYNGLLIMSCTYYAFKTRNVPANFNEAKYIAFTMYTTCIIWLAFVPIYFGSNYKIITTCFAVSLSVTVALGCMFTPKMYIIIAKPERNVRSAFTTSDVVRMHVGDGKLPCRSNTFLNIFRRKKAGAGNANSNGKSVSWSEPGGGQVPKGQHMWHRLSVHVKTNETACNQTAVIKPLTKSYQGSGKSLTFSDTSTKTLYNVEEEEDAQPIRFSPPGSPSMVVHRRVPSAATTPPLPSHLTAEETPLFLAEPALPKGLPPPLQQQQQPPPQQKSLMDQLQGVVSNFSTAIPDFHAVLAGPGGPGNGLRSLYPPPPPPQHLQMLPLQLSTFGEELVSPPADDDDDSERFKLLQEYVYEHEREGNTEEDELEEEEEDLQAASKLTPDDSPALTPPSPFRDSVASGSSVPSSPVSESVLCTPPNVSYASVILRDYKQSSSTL

Target: Metabotropic glutamate receptor 1 (Homo sapiens, UniProt Q13255)
Assay: Positive allosteric modulation of tetracycline-inducible wild type human mGLU1 receptor expressed in human T-REx-293 cells assessed as maximum efficacy incubated for 2.5 mins by Fluo-4 AM dye based calcium mobilization assay relative to glutamate
Type: functional, cell-based

- Emax: inactive
Compound: Cn1nccc1-c1ccc(Cl)c(C(=O)NCc2cnn3ccccc23)c1

The source made the active and inactive calls. The rule behind the calls is not given here.
